Assay outcomes: PubChem, Broad Institute
Sampled rows, rich in hits. Any-hit rate of the full collection: about 1.3%.
ERAP1 HTS inh: blocks human ERAP1 aminopeptidase activity. Q9NZ08. recombinant ERAP1, Leu-AMC fluorescence, 60 min. inhibition, % at 10.7 µM. 340,000 compounds, 0.15% hits. AID 652197;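 active = mean replicate inhibition of at least 30%, or all replicates individually reaching that 30% level; inactive = mean below 30% and not every replicate reaching it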;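 also: 0% = neutral control wells and 100% = L-leucinethiol positive control wells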
E-sel inducer: E-selectin induction on HUVECs. AID 686992. HUVEC E-selectin immunofluorescence imaging; normalized: neutral wells 0, TNF-alpha wells 100. P16581. 260,000 compounds, 0.37% hits. activation, % at 7.58 µM;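 active = mean E-selectin-positive cell signal at least 10% of the positive control, reached in at least 60% of replicates, without over 20% cell loss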
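Assay system: HUVEC primary endothelial cells. Input: 3,000 HUVEC seeded per well. Doses: one compound dose added by pin transfer. Read-out basis: % PE-positive cells. Benchmarks: TNF-alpha high, DMSO low. Detection: immunofluorescence imaging. Buffer or medium: EGM-2, gelatin.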
AF4-AF9 inh: blocks AF4 peptide binding to human AF9. 350,000 compounds, 0.47% hits. AID 651704. AlphaScreen, biotin-AF4 peptide binding to FLAG-AF9. P42568. inhibition, % at 10 µM;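 active = every replicate reaching a set inhibition limit, whatever the replicate mean, cut at about 25% in these data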;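 also: 0% = plate neutral control median and 100% = total signal loss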
S100A4 MyoIIA: blocks human S100A4 binding to myosin IIA peptide; 360,000 compounds, 0.14% hits; P26447; inhibition, % at 10.7 µM; S100A4/TAMRA-MyoIIA peptide fluorescence polarization;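 active = mean inhibition of at least 70% across replicates, with every replicate also reaching that level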
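Material: S100A4 monomer protein / Buffer or medium: 50 mM HEPES pH 7.2, 10 mM CaCl2, 100 mM KCl / Times: 5 min incubation before reading / Benchmarks: neutral control DMSO, positive control TFP / Reagent: labelled myosin peptide probe, 5 nM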
Yeast UUG start-1: modulators of start codon recognition fidelity in yeast; S. cerevisiae UUG-firefly luciferase reporter, luminescence/redox ratio; activity score, % at 18.7 µM; hit rate 0.13% among 350,000; AID 602363;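 active = replicate mean at a twofold rise or more, about +100% in these data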;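 note: firefly luciferase made from a UUG start codon reports start codon fidelity; reporter light over untreated wells divided by growth signal over untreated wells; some hits fall short of that in this replicate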
ARNT TACC3 PPI: ARNT/TACC3 interaction disruption; AID 623870; 390,000 compounds, 0.66% hits; Q9Y6A5; inhibition, % at 9.99 µM; AlphaScreen His-ARNT PAS-B/GST-TACC3 binding, luminescence; TACC3 fragment carries E629A point mutation;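 active = mean inhibition of replicates at least 50% and at least half of replicates each reaching 50%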;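 also: 0% = complete ARNT plus TACC3 wells and 100% = ARNT alone without TACC3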
Yeast UUG start-2: alters UUG start codon use in yeast | 540 tested, under 10 active | AID 652061 | S. cerevisiae UUG-start firefly luciferase, luminescence, 4 h; 100% means double the DMSO signal | activation, % at 38 µM | shares compounds with Yeast UUG start-1;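 active = signal increase whose fitted curve reaches an absolute level of 40 at a concentration under 10 µM; inactive = activity opposite to the expected increase, or the rest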
* hit, by the source's call; i = inactive; . = not tested or not shown.

cpd	compound	ERAP1 HTS inh	E-sel inducer	AF4-AF9 inh	S100A4 MyoIIA	Yeast UUG start-1	ARNT TACC3 PPI	Yeast UUG start-2
1	CCN(CC)CC#CC(OC)(c1ccccc1)c1ccccc1	0.2	.	13.8	-1.3	.	5.4	-0.2
2	C[C@H]1CN([C@@H](C)CO)C(=O)c2cc(C#CCc3ccccc3)cnc2O[C@H]1CN(C)Cc1ccccc1	-1.2	0.4	5.2	24.2	.	.	.
3	Cc1ccsc1CN(C)CC(=O)Nc1ccc([N+](=O)[O-])cc1Cl	1.4	-0.2	2.3	-3.3	-10.8	4.9	.
4	CN(CC(=O)Nc1cc([N+](=O)[O-])ccc1Cl)Cc1ccc(Br)cc1	.	.	.	.	517.9*	.	3.0
5	COc1ccc(N/C(N)=N/c2nc(CSc3nnc(C)s3)cc(=O)[nH]2)cc1	3.1	.	0.1	-3.8	171.7*	-4.6	-2.3
6	CCCc1nc(-c2cc3ccccc3[nH]c2=O)no1	-4.4	.	-6.6	2.3	226.9*	9.1	12.7
7	COc1ccc2oc(C(=O)OCC(=O)NCCc3ccccc3)c(C)c2c1	-3.0	-1.2	-16.4	1.5	-9.1	-1.0	0.3
8	COc1ccc2oc(C(=O)OCC(=O)NCCc3ccc(S(N)(=O)=O)cc3)c(C)c2c1	1.1	.	-1.1	-3.1	-8.3	-1.0	.
9	CCOc1ccc2oc(C(=O)OCC(=O)NC(=O)NC)c(C)c2c1	.	0.3	10.7	-1.1	-16.8	-4.9	-4.2
10	COc1ccc2oc(C(=O)OCC(=O)N3CCN(C(C)=O)CC3)c(C)c2c1	-1.6	-0.1	0.3	-2.2	-4.1	1.7	1.4
11	Cc1noc(C)c1S(=O)(=O)N(C)C[C@@H]1OCCCC[C@@H](C)Oc2ccc(NS(=O)(=O)c3ccc(F)cc3)cc2C(=O)N([C@H](C)CO)C[C@@H]1C	.	.	.	.	-0.9	-11.2	.
12	COc1ccccc1S(=O)(=O)N[C@H]1CC[C@H](CCNC(=O)C2CCCCC2)O[C@@H]1CO	-3.6	0.0	2.1	22.5	11.5	12.1	.
13	O=C(CCN1CCCCC1)NCC[C@H]1CC[C@H](NC(=O)C2CCCC2)[C@H](CO)O1	7.8	0.6	5.0	-0.6	166.9*	-11.1	i
14	CC(C)c1cn(CC[C@@H]2CC[C@H](NC(=O)C3CCCCC3)[C@H](CO)O2)nn1	-1.9	0.0	-0.6	-7.3	100.1*	-3.6	i
15	Cc1ccccc1S(=O)(=O)NCC[C@H]1CC[C@H](NC(=O)C2CCCCC2)[C@H](CO)O1	0.3	0.0	9.4	-60.9	210.9*	-35.9	i
16	COc1ccccc1S(=O)(=O)N[C@H]1CC[C@H](CCNC(=O)C2CCCC2)O[C@H]1CO	2.4	0.0	-4.9	-2.2	224.0*	-26.5	i
17	C[C@@H]1CN([C@H](C)CO)C(=O)c2ccccc2-c2ccccc2CO[C@@H]1CN(C)C(=O)CCN(C)C	-2.8	0.0	-3.3	-8.1	.	33.6	.
18	O=C(Cc1c[nH]c2ccccc12)N1CCc2ccccc21	.	.	.	.	344.1*	20.4	-1.2
19	O=C(CSc1c[nH]c2ccccc12)N1CCCc2ccccc21	0.5	.	9.6	-5.5	-4.9	-0.1	.
20	CCOc1ccccc1C(=O)NCC(=O)OCC(=O)NCCc1ccc(S(N)(=O)=O)cc1	.	.	.	.	555.4*	17.0	1.4
21	O=C(O)CSc1nnc(-c2ccc(Cl)cc2)n1-c1ccccc1	-0.6	.	-4.2	-1.9	123.6*	-16.2	0.3
22	O=C(O)CSc1nnc(-c2ccncc2)n1-c1ccc(Cl)cc1	.	-0.2	.	.	.	-2.4	.
23	N#C[C@@H]1[C@H](c2ccc(C3=CCCC3)cc2)[C@@H](CO)N1C(=O)C1CC1	-1.0	-0.1	-1.9	-6.6	8.3	0.6	.
24	O=C(NC[C@H]1[C@H](c2ccccc2)[C@H](CO)N1C(=O)Cc1ccncc1)C1CCC1	-0.3	-0.2	-1.1	-8.6	-2.0	-1.0	.
25	C[C@@H]1CCCCO[C@H](CN(C)Cc2ccccc2)[C@H](C)CN([C@@H](C)CO)C(=O)c2cc(NC(=O)c3ccccc3)ccc2O1	.	.	.	.	12.0	5.6	.
26	C[C@H]1CCCCO[C@@H](CN(C)Cc2ccccc2)[C@@H](C)CN([C@@H](C)CO)C(=O)c2cc(NC(=O)c3ccccc3)ccc2O1	.	.	.	.	147.1*	5.1	i

An excerpt from above, reduced to E-sel inducer, Yeast UUG start-2 and Yeast UUG start-1:
| # | Structure | E-sel inducer | Yeast UUG start-2 | Yeast UUG start-1 |
| --- | --- | --- | --- | --- |
| 18 | O=C(Cc1c[nH]c2ccccc12)N1CCc2ccccc21 | . | -1.2 | 344.1* |
| 19 | O=C(CSc1c[nH]c2ccccc12)N1CCCc2ccccc21 | . | . | -4.9 |

Copied from above, entries 25–26
cpd	compound	ERAP1 HTS inh	E-sel inducer	AF4-AF9 inh	S100A4 MyoIIA	Yeast UUG start-1	ARNT TACC3 PPI	Yeast UUG start-2
25	C[C@@H]1CCCCO[C@H](CN(C)Cc2ccccc2)[C@H](C)CN([C@@H](C)CO)C(=O)c2cc(NC(=O)c3ccccc3)ccc2O1	.	.	.	.	12.0	5.6	.
26	C[C@H]1CCCCO[C@@H](CN(C)Cc2ccccc2)[C@@H](C)CN([C@@H](C)CO)C(=O)c2cc(NC(=O)c3ccccc3)ccc2O1	.	.	.	.	147.1*	5.1	i
